Results published in patent US20260102468A1, “COMPOSITIONS AND METHODS FOR MARCO INHIBITION AND IMPROVED DRUG DELIVERY” (BOARD OF REGENTS, THE UNIVERSITY OF TEXAS SYSTEM, priority 2022, published 2026).

Q: With `COc1cccc2c1C(=O)c1c(O)c3c(c(O)c1C2=O)C[C@@](O)(C(=O)CO)C[C@@H]3O[C@H]1C[C@H](N)[C@H](O)[C@H](C)O1` [doxorubicin] as the molecule, how does the “organ distribution of doxorubicin” value (ex vivo fluorescence imaging after liposomal doxorubicin) read?
A: most of the doxorubicin was taken up by the liver

Q: What about the “relative tumor/liver doxorubicin concentration, young versus old” value (total emission normalized by organ weight) of the same molecule?
A: more drugs had been delivered to the tumor in the young mice relative to the liver of the old mice
